From patent publication US12318449B2 (Rutgers, The State University of New Jersey, priority 2012, dated 2025)

What was measured:
[1] = system: hGRM1-negative UACC930 human melanoma cells; conditions: riluzole for 24 hours, escalating doses of IR; P=NS
Procedure: hGRM1-expressing C8161 [wild type (wt) for RAS and BRAF] and UACC903 (wt for RAS, mutated B-RAF, V600E) human melanoma cell line and hGRM1-negative melanoma cell line UACC930 (wt for RAS, mutated B-RAF, V600E), were obtained from Dr. Mary J. C. Hendrix (Children's Memorial Research Center, Chicago, IL) and Dr. Jeffrey M. Trent (Translational Genomics Research Center, Phoenix, AZ), respectively. Cells were cultured in monolayer at 37° C. in a 5% CO2 humidified incubator, in RPMI (InVitrogen) supplemented with 10% fetal bovine serum (Sigma).
Cells were trypsinized for retrieval and plated on 100-mm plates and allowed to attach overnight for 20 hours. […] Cells were irradiated by a Gamma Cell 40 Exactor (MDS Nordion) irradiator and then incubated overnight (20 hours). Drug was aspirated and culture media replaced at 20 hours. Plates were then monitored for 10 to 21 days and stained with crystal violet for visual counting. Colonies which contained more than 50 cells were scored as clonogenic survivors.
All clonogenic assays and cell cycle analyses experiments were repeated 3 times and the triplicate results are shown.

[2] = system: C8161 human melanoma cells; experiment: Cell cycle analysis (propidium iodide flow cytometry); assay type: cell-based; conditions: 8 Gy, 25 uM riluzole, average of 3 experiments
Procedure: Cell pellets were fixed by drop-wise addition of ice-cold 70% ethanol and incubated overnight at 4° C. Fixed cells were washed twice with ice-cold PBS and resuspended in […] PBS. […] The experiment was repeated 3 times.

C8161 xenografts = conditions: 19 and 25 days
Procedure: Immunodeficient nude mice were purchased from Taconic. C8161 cells were injected into flanks bilaterally at 10^6 cells per site.

[3] = system: C8161 hGRM1-positive human melanoma cells; conditions: riluzole plus irradiation in comparison with irradiation alone; 0, 24, 48 and 72 hours after irradiation

**Q.** What does the source list for `Nc1nc2ccc(OC(F)(F)F)cc2s1` [Riluzole, riluzole]?
**A.** difference between treated and untreated control cells (survival fraction) [1]: no difference; G1 ([2]; Radiation followed by Riluzole): 29.13; G1 ([2]; Riluzole followed by Radiation): 16.25; G2 ([2]; Riluzole followed by Radiation): 61.64; S ([2]; Riluzole followed by Radiation): 18.45; tumor volume (C8161 xenografts; riluzole (10 mg/kg daily) plus irradiation (3 weekly fractions of 4 Gy) versus untreated controls, riluzole alone or irradiation alone): significantly smaller tumors; tumor volume (C8161 xenografts; riluzole alone (10 mg/kg daily oral gavage) versus untreated or vehicle controls): significantly smaller tumors; cleaved caspase-3 / sensitization to ionizing radiation [3]: sensitized the cells to ionizing radiation

Read-outs that look alike come from different tables or passages of the source.
